How the values were obtained:
[1] = male, human, in vivo
[2] = clinical; conditions: male, human, in vivo, t1/2

Question: What does the source list for COc1cc2nccc(Oc3ccc(NC(=O)C4(C(=O)Nc5ccc(F)cc5)CC4)cc3)c2cc1OC [XL184, N-(4-{[6,7-bis(methyloxy)quinolin-4-yl]oxy}phenyl)-N′-(4-fluorophenyl)cyclopropane-1,1-dicarboxamide]?
Answer: kel [1]: 0.00712 h⁻¹; half-life [2]: 102 h
